In patent US9095573B2, “Method of biasing implanted human neural stem cells away from differentiation into glial cells by (+)phenserine to modulate the concentration of soluble βAPP in tissue or CSF” (priority 2005, dated 2015):

Tests used:
[1] = test system: APP protein (22C11); experiment: Western blot analysis of APP protein expression in brain tissue after (+)-phenserine treatment; format: in vivo, APP23 and wild-type mice; conditions: 25 mg/kg, i.p./day for 14 days
Description: (§1) APP23 mice, expressing the 751-amino acid human amyloid-precursor protein (hAPP751) with the Swedish double mutation (K670N, M671L) driven by the neuron-specific murine Thy-1-promoter (Sturchler-Pierrat et al., 1997) were received as a gift from Novartis Pharma Ltd., (Switzerland), and employed to breed a colony of experimental animals by backcrossing to C57/BL6 mice. Mixed genotype groups were housed in standard mouse cages with access to food and water ad libitum, constant room temperature and humidity, during a 12/12 hr light/dark cycle. Genotypes were confirmed by PCR (Calhoun et al., 1999). In all experiments wild-type littermates served as controls. All animal experimental procedures were carried out in compliance with National Institutes Health Guidelines for Care and Use of Laboratory Animals, and approved by the Animal Research Committee (protocol 00-24) at the University of Central Florida.
(§2) A total of 55 age and sex-matched APP23 (n=30) and wild-type (n=25) mice (ages ranged from 4-7 months) were administered with either (+)-phenserine (25 mg/kg/day, i.p.) or 0.9% saline (control) for 14 consecutive days. Animals were subsequently divided into two groups that were either sacrificed following 14 days treatment (n=17 APP23 and n=13 wild-type, respectively) or received transplantation of HSNC into the lateral ventricle (n=13 APP23 mice and n=12 wild-type, respectively). (+)-Phenserine or saline injection was continued once a day for 1 week after a 2-day recovery from transplantation surgery. […]
(§3) Western blot analysis was performed to analyze effect of (+)-phenserine on the relative APP and GFAP protein expression in APP23 and control mice. […] The homogenates were centrifuged and washed twice at 12,000× g for 10 min at 4° C. and the supernatants were used for protein quantification by the Bradford method using Bio-Rad Protein Assay Dye Reagent (Bio-Rad, Hercules, Calif.). […]

[2] = test system: βAPP; conditions: Greig et al.; cited from earlier work
[3] = test system: GFAP; experiment: Western blot analysis of GFAP protein expression in brain tissue after (+)-phenserine treatment; format: in vivo, APP23 and wild-type mice; conditions: 25 mg/kg, i.p./day for 14 days
Description: as §1, §2, §3

[4] = wild-type mice, hippocampus (FIG. 1)

(+)-phenserine
reduction in APP protein expression ([1]; cerebral cortices of APP23 and wild-type mice, p>0.05): did not reach statistical significance
decrease in APP protein expression vs saline treated ([1]; hippocampus of APP23 mice, p<0.01): ~3 fold
change in APP protein expression vs saline treated [1, 4]: No significant change
effect on βAPP levels in the brain [2]: dramatically reduces βAPP levels in the brain
change in GFAP protein expression ([3]; cerebral cortices of APP23 and wild-type mice): no significant change
reduction in GFAP protein expression ([3]; hippocampus of APP23 mice, p<0.05): ~1.5 fold
change in GFAP protein expression vs saline treated [3, 4]: No significant changes
